Test results: patent publication US7314879B2, “Melanocortin receptor agonists” (Eli Lilly and Company, priority 2002, dated 2008)

Amino acid sequences for entries named in this document (tags omitted).
UniProt P32245, whole entry: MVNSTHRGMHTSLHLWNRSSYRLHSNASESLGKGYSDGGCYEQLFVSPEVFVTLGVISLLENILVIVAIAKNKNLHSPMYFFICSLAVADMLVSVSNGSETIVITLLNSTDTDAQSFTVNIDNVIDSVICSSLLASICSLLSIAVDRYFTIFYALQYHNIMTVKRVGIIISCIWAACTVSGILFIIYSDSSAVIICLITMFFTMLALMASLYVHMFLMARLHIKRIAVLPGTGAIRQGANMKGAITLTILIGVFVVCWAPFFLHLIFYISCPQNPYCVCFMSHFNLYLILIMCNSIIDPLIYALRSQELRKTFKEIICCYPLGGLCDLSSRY

Key:
MC4 [1] = molecular target: T1, MC4 (Homo sapiens, UniProt P32245); experiment: Radioligand binding assay: competitive inhibition of 125I-NDP-alpha-MSH binding to membranes of stably transfected HEK 293 cells; conditions: read-out: MC4 Ki; 125I-NDP-alpha-MSH competition; Ki from IC50 by Cheng-Prusoff equation; tested form: TFA
Procedure: The radioligand binding assay is used to identify competitive inhibitors of ^125I-NDP-alpha-MSH binding to cloned human MCRs using membranes from stably transfected human embryonic kidney (HEK) 293 cells.
HEK 293 cells transfected with human or rat melanocortinin receptors are grown either as adherent monolayers or suspension culture. Monolayer cells are grown in roller bottle cultures at 37° C. and 5% CO2/air atmosphere in a 3:1 mixture of Dulbecco's modified Eagle medium (DMEM) and Ham's F12 containing 25 mM L-glucose, 100 units/ml penicillin G, 100 microgram/ml streptomyocin, 250 nanogram/ml amphoterin B, 300 microgram/ml genticin and supplemented with 5% fetal bovine serum. Monolayer cells are adapted to suspension culture (Berg et al., Biotechniques Vol. 14, No.6, 1993) and are grown in spinner or shaker flasks (37° C. and 7.5% CO2/air overlay) in a modified DME/F12 medium containing 0.1 mM CaCl2, 2% equine serum and 100 microgram/ml sodium heparin (to prevent cell-cell aggregation). […]
Solutions of a compound of formula I (300 picomolar to 30 micromolar) or unlabelled NDP-alpha-MSH (1 picomolar to 100 nanomolar) are added to 150 microliters of membrane binding buffer to yield final concentrations (listed in parantheses). […] The radioactivity is quantified in a Wallac Trilux Microplate Scintillation counter. […]

MC4 [2] = molecular target: T1, MC4; experiment: Functional agonist assay in HEK 293 cells stably expressing melanocortin receptor (luciferase reporter / whole cell cAMP accumulation); conditions: tested form: TFA
Description: Functional cell based assays are developed to discriminate agonists and antagonists.
Agonist Assay: HEK 293 cells stably expressing a human melanocortin receptor (see e.g., Yang, et al., Mol-Endocrinol., 11(3): 274-80, 1997) are dissociated from tissue culture flasks using a trypsin/EDTA solution (0.25%; Life Technologies, Rockville, Md.). Cells are collected by centrifugation and resuspended in DMEM (Life Technologies, Rockville, Md.) supplemented with 1% L-glutamine and 0.5% fetal bovine serum. Cells are counted and diluted to 4.5×10^5/ml.
A compound of formula I is diluted in dimethylsulfoxide (DMSO) (3×10^−5 to 3×10^−10 M final concentrations) and 0.05 volume of compound solution is added to 0.95 volumes of cell suspension; the final DMSO concentration is 0.5%. After incubation at 37° C./5% CO2 for 5 hours, cells are lysed by addition of luciferin solution (50 mM Tris, 1 mM MgCl2, 0.2% Triton-X100, 5 mM DTT, 500 micromolar Coenzyme A, 150 micromolar ATP, and 440 micromolar luciferin) to quantify the activity of the reporter gene luciferase, an indirect measurement of intracellular cAMP production.
Luciferase activity is measured from the cell lysate using a Wallac Victor 2 luminometer. […]
Radioligand binding assays were run in SPA buffer (50 mM Sodium Acetate, 0.1% BSA). […] The plates were counted in a Wallac MicroBeta counter after a 12-hour incubation. […]

- Ki (MC4 [1]): 9 nM
- EC50 (MC4 [2]; read-out: MC4 EC50, agonist potency, concentration giving half maximal stimulation): 4.3 nM
- % Rel. Eff. (MC4 [2]; relative efficacy compared to NDP-alpha-MSH defined as 100% agonist): 104%
Structure (SMILES): CC(C)CC1(N2CCN(C(=O)[C@@H](Cc3ccc(Cl)cc3)NC(=O)CC3NCc4ccccc43)CC2)CCN(C(C)C)CC1 (stereo partly drawn)
